# Laboratory results from patent publication US20040198743A1 (Schering Corporation, priority 2003, published 2004).
# By UniProt entry, the sequences of proteins in these tests, tags left out.
# UniProt Q9Y5N1, whole entry: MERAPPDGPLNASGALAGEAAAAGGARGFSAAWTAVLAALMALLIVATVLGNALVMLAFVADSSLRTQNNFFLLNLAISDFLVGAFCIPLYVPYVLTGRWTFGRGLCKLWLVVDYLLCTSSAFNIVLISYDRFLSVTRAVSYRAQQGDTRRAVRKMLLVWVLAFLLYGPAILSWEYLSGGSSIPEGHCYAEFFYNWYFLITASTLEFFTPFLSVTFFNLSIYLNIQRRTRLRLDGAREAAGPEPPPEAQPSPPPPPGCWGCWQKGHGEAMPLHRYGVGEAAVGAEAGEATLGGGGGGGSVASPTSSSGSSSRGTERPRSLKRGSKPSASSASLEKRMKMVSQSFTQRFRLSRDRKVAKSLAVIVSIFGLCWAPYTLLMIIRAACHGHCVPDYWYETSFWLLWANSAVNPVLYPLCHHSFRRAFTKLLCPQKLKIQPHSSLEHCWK
# Target: Histamine Receptor H3 (Homo sapiens, UniProt Q9Y5N1)
# Experiment: Membrane binding assay, [3H]-N'-methylhistamine for H3 binding
# Settings: concentration not given
smiles,measurement,value
CC(C)(C(=O)O)c1ccc(C(=O)CCCN2CCC(OC(c3ccccc3)c3ccccc3)CC2)cc1,"H3 Ki (nM), value printed as %",1%
